Reference: publication PMC8306828, “Ruthenium(II) and Platinum(II) Complexes with Biologically Active Aminoflavone Ligands Exhibit In Vitro Anticancer Activity” (International Journal of Molecular Sciences, 2021)

By UniProt entry, the sequences of proteins in these tests, tags left out. Where a name states a change or a piece, a line headed by the entry shows the natural chain unless it says otherwise.
UniProt P11388: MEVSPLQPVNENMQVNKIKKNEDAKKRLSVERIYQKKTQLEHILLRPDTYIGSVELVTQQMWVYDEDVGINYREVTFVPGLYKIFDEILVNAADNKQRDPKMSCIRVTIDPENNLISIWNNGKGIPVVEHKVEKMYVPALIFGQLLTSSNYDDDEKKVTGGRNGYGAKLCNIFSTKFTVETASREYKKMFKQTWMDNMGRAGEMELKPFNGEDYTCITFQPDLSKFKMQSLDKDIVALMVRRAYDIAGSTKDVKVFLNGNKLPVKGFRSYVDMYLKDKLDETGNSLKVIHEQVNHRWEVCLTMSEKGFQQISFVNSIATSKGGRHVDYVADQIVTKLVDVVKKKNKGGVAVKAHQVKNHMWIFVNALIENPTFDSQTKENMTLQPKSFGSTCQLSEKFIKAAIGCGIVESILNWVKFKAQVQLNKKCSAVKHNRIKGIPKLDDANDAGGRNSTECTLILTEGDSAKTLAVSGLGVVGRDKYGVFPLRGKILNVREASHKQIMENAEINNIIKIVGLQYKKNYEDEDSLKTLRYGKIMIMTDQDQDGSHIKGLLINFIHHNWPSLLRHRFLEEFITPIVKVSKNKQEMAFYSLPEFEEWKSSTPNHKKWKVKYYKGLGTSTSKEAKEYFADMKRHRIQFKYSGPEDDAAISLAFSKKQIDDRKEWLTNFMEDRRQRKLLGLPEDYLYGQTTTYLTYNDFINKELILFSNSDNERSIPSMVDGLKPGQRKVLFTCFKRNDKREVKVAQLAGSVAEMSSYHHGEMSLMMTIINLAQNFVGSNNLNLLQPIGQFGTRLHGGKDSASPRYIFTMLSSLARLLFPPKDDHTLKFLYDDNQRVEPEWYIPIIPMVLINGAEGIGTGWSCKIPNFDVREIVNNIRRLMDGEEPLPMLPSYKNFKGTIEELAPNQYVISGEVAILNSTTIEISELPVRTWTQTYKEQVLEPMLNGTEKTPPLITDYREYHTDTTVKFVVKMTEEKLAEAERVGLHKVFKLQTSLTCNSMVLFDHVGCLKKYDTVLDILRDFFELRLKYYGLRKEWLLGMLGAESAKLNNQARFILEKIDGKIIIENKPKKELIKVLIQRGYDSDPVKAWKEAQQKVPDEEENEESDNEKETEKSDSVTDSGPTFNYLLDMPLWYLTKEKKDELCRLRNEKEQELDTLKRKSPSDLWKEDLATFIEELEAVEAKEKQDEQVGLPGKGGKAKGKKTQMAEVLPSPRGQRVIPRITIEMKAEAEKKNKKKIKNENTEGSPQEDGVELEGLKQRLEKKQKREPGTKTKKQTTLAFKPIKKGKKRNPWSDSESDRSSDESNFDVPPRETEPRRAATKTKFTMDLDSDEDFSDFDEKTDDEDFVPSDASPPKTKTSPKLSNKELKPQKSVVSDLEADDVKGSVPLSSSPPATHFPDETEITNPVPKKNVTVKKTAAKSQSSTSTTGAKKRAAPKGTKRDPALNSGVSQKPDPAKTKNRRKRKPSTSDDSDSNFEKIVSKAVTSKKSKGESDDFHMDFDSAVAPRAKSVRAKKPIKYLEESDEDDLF

Molecular target: T1, human topoisomerase II (Homo sapiens, UniProt P11388)
T1 construct: purchased TopoGen, Buena Vista, CO, USA
Test: Topoisomerase II drug screening (plasmid based), gel electrophoresis
Assay type: biochemical
Settings: scDNA + topo2; tested compounds 10-20 µM, etoposide 100 µM

inhibition of topoisomerase II / DNA band pattern: presence of linear DNA
SMILES: COc1cc([C@@H]2c3cc4c(cc3[C@@H](O[C@@H]3O[C@@H]5CO[C@@H](C)O[C@H]5[C@H](O)[C@H]3O)[C@H]3COC(=O)[C@H]23)OCO4)cc(OC)c1O [etoposide]
